Our source for the EC50 values is ChEMBL document CHEMBL1135896, “Synthesis and notable antimalarial activity of acyclic peroxides, L-(alkyldioxy)-L-(methyldioxy)cyclododecanes” (J Med Chem, 2002).

In this assay the test system is FM3A. In words: Mammalian cell cytotoxicity assessed against mouse mammary tumor FM3A cells. It counts as functional, cell-based. The procedure, abridged:
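Mouse mammary tumor FM3A cells in culture used as a mammalian cytotoxicity control; EC50 determined by a previously reported protocol. Selectivity is the mean EC50 for FM3A cells divided by the mean EC50 for P. falciparum.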

One may read the EC50 as the concentration at which the effect is half-maximal. Higher therefore signals a need for much substance.

As to `CCCCC(CCCC)(OOC)OOC`, the EC50 was more than 45 µM.

Consider `COOC1(OOC)CCC(C(C)(C)C)CC1`, for which the midpoint of the response, the EC50, lay at 25 µM.
